{
  "source": "patent US9138479B2",
  "about": "“Formulations for the treatment of diabetes” (XERIS PHARMACEUTICALS, INC., priority 2011, dated 2015)",
  "test": "Pramlintide solubility in DMSO and DMSO-water co-solvents (visual inspection)",
  "assay_type": "physicochemical",
  "protocol": "• 3b. Alternatively, aqueous insulin or pramlintide solution is dispensed into microcentrifuge tubes and dried by centrifugation under vacuum and gentle heat (25-30° C.). • 4. Dried insulin or pramlintide powder at the selected pH memory is dissolved in DMSO by gentle pipetting to the desired concentration, or the concentration permitted by the particular buffer system and pH. • 5. The resulting solutions are assessed visually for clarity and/or analyzed for light scattering using visible spectroscopy at […], and used in various downstream applications.\nSolutions of pramlintide were prepared at a concentration of 2 mg/mL in 10 mM citrate, pH 2.0, or 10 mM citrate, pH 4.0, each with or without 2 mg/mL trehalose. The solutions were dried by centrifugation under vacuum for approximately 3.5 hours at 25-30° C., or lyophilized as described above.",
  "data": [
    {"smiles": "CC[C@H](C)[C@H](NC(=O)[C@@H]1CCCN1C(=O)CNC(=O)[C@H](Cc1ccccc1)NC(=O)[C@H](CC(N)=O)NC(=O)[C@H](CC(N)=O)NC(=O)[C@H](CO)NC(=O)[C@H](CO)NC(=O)[C@H](Cc1c[nH]cn1)NC(=O)[C@@H](NC(=O)[C@H](CC(C)C)NC(=O)[C@H](Cc1ccccc1)NC(=O)[C@H](CC(N)=O)NC(=O)[C@H](C)NC(=O)[C@H](CC(C)C)NC(=O)[C@H](CCCNC(=N)N)NC(=O)[C@H](CCC(N)=O)NC(=O)[C@@H](NC(=O)[C@H](C)NC(=O)[C@@H]1CSSC[C@H](NC(=O)[C@@H](N)CCCCN)C(=O)N[C@@H](CC(N)=O)C(=O)N[C@@H]([C@@H](C)O)C(=O)N[C@@H](C)C(=O)N[C@@H]([C@@H](C)O)C(=O)N1)[C@@H](C)O)C(C)C)C(=O)N[C@@H](CC(C)C)C(=O)N1CCC[C@H]1C(=O)N1CCC[C@H]1C(=O)N[C@H](C(=O)N[C@@H](CC(N)=O)C(=O)N[C@H](C(=O)NCC(=O)N[C@@H](CO)C(=O)N[C@@H](CC(N)=O)C(=O)N[C@H](C(=O)N[C@@H](Cc1ccc(O)cc1)C(N)=O)[C@@H](C)O)C(C)C)[C@@H](C)O", "note": "[pramlintide]", "values": [
      {"measurement": "solubility in neat DMSO", "setting": "dried citrate-buffered, pH memory 2.0, with and without trehalose, 20 mg/mL (highest concentration tested)", "value": "completely dissolved"},
      {"measurement": "solubility in water", "setting": "dried citrate-buffered, pH memory 4.0", "value": "effectively insoluble"},
      {"measurement": "solubility in neat DMSO", "setting": "dried citrate-buffered, pH memory 4.0, 2 mg/mL", "value": "somewhat resistant to reconstitution"},
      {"measurement": "solubility in DMSO with added water", "setting": "pH memory 4.0, between 6% and 10% water added, nominal 2 to 5 mg/mL, visual inspection", "value": "improved or nearly complete solubility"}
    ]}
  ]
}
